These results are taken from paper PMC11171933, “Rapid Determination of Kinetic Constants for Slow-Binding Inhibitors and Inactivators of Human Histone Deacetylase 8” (International Journal of Molecular Sciences, 2024).

One test deals with T1, human HDAC8 (Homo sapiens, UniProt Q9BY41).
T1 sequence (Q9BY41 1-377): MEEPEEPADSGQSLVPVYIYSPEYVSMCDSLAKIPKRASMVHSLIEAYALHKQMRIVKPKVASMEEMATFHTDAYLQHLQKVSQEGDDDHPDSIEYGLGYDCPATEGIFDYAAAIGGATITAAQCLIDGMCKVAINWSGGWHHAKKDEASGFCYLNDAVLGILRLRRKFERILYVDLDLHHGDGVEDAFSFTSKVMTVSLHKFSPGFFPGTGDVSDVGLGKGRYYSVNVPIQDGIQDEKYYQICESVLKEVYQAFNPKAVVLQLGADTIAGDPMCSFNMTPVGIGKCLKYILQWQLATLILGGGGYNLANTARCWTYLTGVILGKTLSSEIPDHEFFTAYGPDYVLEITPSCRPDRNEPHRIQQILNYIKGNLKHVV
Nature of the test: Time-dependent fluorometric HDAC8 enzyme activity assay (dose-response curves after different pre-incubation times).

A further test deals with EGFR. To be noted: EGFR inhibitor; cited from earlier work.

In turn, `O=C(CCCCCCC(=O)Nc1ccccc1)NO` [SAHA, suberoylanilide hydroxamic acid] displayed a half-inhibitory concentration (IC50) on human HDAC8 of 0.9 ± 0.2 µM.

In the case of `CS(=O)(=O)CCNCc1ccc(-c2ccc3ncnc(Nc4ccc(OCc5cccc(F)c5)c(Cl)c4)c3c2)o1` [lapatinib], the “residence time (RT)” value in the test on EGFR was 7.2 h.

Usually IC50 stands for the concentration needed to halve the response being measured. The low end stands for greater potency in that assay, the high end for weaker potency in that assay.
